## Yeast mating assay B: variants of the scFv Ab-14

Antigen: PDVDLGDISGINAS, a 14-residue peptide of the SARS-CoV-2 spike HR2 region.

Parent: Ab-14, a human scFv built as VH, three GGGGS repeats, VL. Only the CDRs of the heavy chain vary.
VH: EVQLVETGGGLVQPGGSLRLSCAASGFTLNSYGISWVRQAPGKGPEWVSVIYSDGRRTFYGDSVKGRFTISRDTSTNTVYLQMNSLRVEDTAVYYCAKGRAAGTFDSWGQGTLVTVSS
VL: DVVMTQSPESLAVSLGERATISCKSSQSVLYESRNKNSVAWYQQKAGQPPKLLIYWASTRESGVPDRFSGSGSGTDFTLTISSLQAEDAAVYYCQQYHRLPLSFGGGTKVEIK

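Designed CDR sequences, proposed from the first random library and measured here. Their group label is 14H_En_Gen (En: ensemble of fine-tuned language models; Gen: genetic algorithm). Affinity was read by AlphaSeq, a pooled yeast mating assay with surface-displayed partners. Binding brings cells together so that they mate, and sequencing counts the barcode pairs among the diploids. The ratio of observed to expected reads was calibrated, replicate by replicate, on BCL2-family standards whose Kd was known from biolayer interferometry. Mating was done six times.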

Variants are written as CDR1, CDR2 and CDR3 of the heavy chain (limits as in the source). Parent: GFTLNSYGIS, VIYSDGRRTFYGDSVK, GRAAGTFDS. Scale: log10 of Kd in nM, estimated from mating counts; low values are strong binders. The mean shown is taken over the replicates in which the pair was detected. "n.d." marks a missing value. The strain was present, yet no cells mated with the target were sequenced in that replicate, which points to weak or no binding. Background: pairings of all heavy chain designs with three empty control strains gave a value in 1% of cases (median 2.08, 5th percentile 0.84). Values in that range, when seen in few replicates, are hard to tell from nonspecific mating. Also given: how often the same scFv was detected with the empty control strains, with their mean in brackets. The authors' rule: three or more of the six replicates give a measured affinity, fewer mean a poor binder. The range of this assay differs from that of the first round, and the authors advise against merging the two.

{"CDR-H1": "GFNLDEYGIS", "CDR-H2": "VIYADGMRTAYADSVK", "CDR-H3": "GEVAGTFDL", "log10 Kd, replicates": "-0.11 0.04 -0.11 -0.16 -0.12 -0.08", "log10 Kd (nM), mean": "-0.09", "control signals": "0 of 18"}
{"CDR-H1": "GFDLDEYGIS", "CDR-H2": "VIYADGQRTAYADSVK", "CDR-H3": "GEVAGTFDL", "log10 Kd, replicates": "n.d. -0.72 n.d. -1.56 -1.77 n.d.", "log10 Kd (nM), mean": "-1.35", "control signals": "0 of 18"}
{"CDR-H1": "GFNLDEYGIS", "CDR-H2": "VIYADGVRTAYSDSVK", "CDR-H3": "GNVAGTFDV", "log10 Kd, replicates": "-0.53 -0.64 -0.40 -0.57 -0.72 -0.41", "log10 Kd (nM), mean": "-0.55", "control signals": "0 of 18"}
{"CDR-H1": "GFDLDEYGIS", "CDR-H2": "VIYADGMRTAYQDSVK", "CDR-H3": "GNVAGTFDL", "log10 Kd, replicates": "-0.40 -0.45 -0.65 0.06 -0.05 -0.28", "log10 Kd (nM), mean": "-0.29", "control signals": "1 of 18 (2.07)"}
{"CDR-H1": "GFDLDEYGIS", "CDR-H2": "VIYADGMRTAYSDSVK", "CDR-H3": "GNEAGTFDI", "log10 Kd, replicates": "-0.38 -0.24 -1.12 -0.16 -0.23 -0.26", "log10 Kd (nM), mean": "-0.40", "control signals": "0 of 18"}
{"CDR-H1": "GFDLNEYGIS", "CDR-H2": "VIYADGMRTAYADSVK", "CDR-H3": "GQTAGTFDI", "log10 Kd, replicates": "-0.10 0.68 0.34 -0.61 -0.51 -0.50", "log10 Kd (nM), mean": "-0.12", "control signals": "0 of 18"}
{"CDR-H1": "GFDLNEYGIS", "CDR-H2": "VIYADGMRTAYSDDVK", "CDR-H3": "GNVAGTFDQ", "log10 Kd, replicates": "-0.03 0.44 -0.53 -1.04 0.41 -0.57", "log10 Kd (nM), mean": "-0.22", "control signals": "0 of 18"}
{"CDR-H1": "GFDLNEYGIS", "CDR-H2": "VIYADGVRKVYADSVK", "CDR-H3": "GNNAGTFDV", "log10 Kd, replicates": "-0.14 -0.24 -0.45 -0.11 -0.22 -0.11", "log10 Kd (nM), mean": "-0.21", "control signals": "0 of 18"}
{"CDR-H1": "GFDLNEYGIS", "CDR-H2": "VIYADGMRTAYTDSVK", "CDR-H3": "GNQAGTFDQ", "log10 Kd, replicates": "n.d. 0.62 -0.54 0.23 -1.38 -0.71", "log10 Kd (nM), mean": "-0.35", "control signals": "0 of 18"}
{"CDR-H1": "GFDLDEYGIS", "CDR-H2": "VIYADGQRTAYADSVK", "CDR-H3": "GNVAGTFDQ", "log10 Kd, replicates": "-0.27 -0.78 -0.76 -1.08 -0.06 -0.32", "log10 Kd (nM), mean": "-0.55", "control signals": "0 of 18"}
{"CDR-H1": "GFDLNEYGIS", "CDR-H2": "VIYADGQRTAYADSVK", "CDR-H3": "GANAGTFDL", "log10 Kd, replicates": "-0.09 -0.35 -0.19 -0.40 -0.60 -0.37", "log10 Kd (nM), mean": "-0.33", "control signals": "2 of 18 (2.38)"}
{"CDR-H1": "GFDLNEYGIS", "CDR-H2": "VIYADGMRTAYADSVK", "CDR-H3": "GEVAGTFVV", "log10 Kd, replicates": "-0.12 -0.31 1.17 0.23 0.66 -0.51", "log10 Kd (nM), mean": "0.19", "control signals": "0 of 18"}
{"CDR-H1": "GFDLDEYGIS", "CDR-H2": "VIYADGMRTAYADSVK", "CDR-H3": "GQVAGTFDT", "log10 Kd, replicates": "-0.63 -0.39 -0.81 0.28 -0.64 -0.73", "log10 Kd (nM), mean": "-0.49", "control signals": "0 of 18"}
{"CDR-H1": "GFDLNEYGIS", "CDR-H2": "VIYADGVRTFYADSVK", "CDR-H3": "GNVAGTFDV", "log10 Kd, replicates": "-0.05 0.24 0.18 -0.15 -0.05 -0.14", "log10 Kd (nM), mean": "0.01", "control signals": "1 of 18 (4.72)"}
{"CDR-H1": "GFDLDEYGIS", "CDR-H2": "VIYADGMRTAYVDSVK", "CDR-H3": "GNQAGTFDI", "log10 Kd, replicates": "-0.60 -0.41 -0.51 -0.44 -0.39 -0.10", "log10 Kd (nM), mean": "-0.41", "control signals": "0 of 18"}
{"CDR-H1": "GFDLDEYGIS", "CDR-H2": "VIYADGKRTAYADDVK", "CDR-H3": "GNVAGTFDI", "log10 Kd, replicates": "0.24 -0.30 -0.44 -0.58 -0.72 -0.27", "log10 Kd (nM), mean": "-0.34", "control signals": "0 of 18"}
{"CDR-H1": "GFDLNEYGIS", "CDR-H2": "VIYADGTRTAYADSVK", "CDR-H3": "GENAGTFDI", "log10 Kd, replicates": "-0.56 -0.74 -0.50 -0.30 -0.80 -0.55", "log10 Kd (nM), mean": "-0.57", "control signals": "0 of 18"}
{"CDR-H1": "GFDLDEYGIS", "CDR-H2": "VIYADGMRTAYSDSVK", "CDR-H3": "GNVAGTFDI", "log10 Kd, replicates": "-0.40 -0.57 -0.43 -0.39 -0.50 -0.29", "log10 Kd (nM), mean": "-0.43", "control signals": "0 of 18"}
{"CDR-H1": "GFDLDEYGIS", "CDR-H2": "VIYADGMRTAYTDSVK", "CDR-H3": "GEVAGTFDM", "log10 Kd, replicates": "-0.57 -0.42 -0.78 -0.72 -0.28 -0.41", "log10 Kd (nM), mean": "-0.53", "control signals": "0 of 18"}
{"CDR-H1": "GFDLNEYGIS", "CDR-H2": "VIYADGMRTAYADDVK", "CDR-H3": "GQVAGTFDM", "log10 Kd, replicates": "-0.29 -0.73 -0.76 -0.96 -1.28 -0.43", "log10 Kd (nM), mean": "-0.74", "control signals": "0 of 18"}
{"CDR-H1": "GFDLNEYGIS", "CDR-H2": "VIYADGVRKAYADSVK", "CDR-H3": "GENAGTFDM", "log10 Kd, replicates": "-0.37 -0.49 -0.35 -0.45 -0.69 -0.52", "log10 Kd (nM), mean": "-0.48", "control signals": "0 of 18"}
{"CDR-H1": "GFDLNEYGIS", "CDR-H2": "VIYADGMRTAYIDSVK", "CDR-H3": "GNNAGTFDI", "log10 Kd, replicates": "-0.30 -0.54 -0.58 -0.61 -1.12 0.26", "log10 Kd (nM), mean": "-0.48", "control signals": "0 of 18"}
{"CDR-H1": "GFDLDEYGIS", "CDR-H2": "VIYADGVRTFYADSVK", "CDR-H3": "GNNAGTFDV", "log10 Kd, replicates": "1.32 0.55 0.85 0.54 0.65 0.77", "log10 Kd (nM), mean": "0.78", "control signals": "0 of 18"}
{"CDR-H1": "GFNLDEYGIS", "CDR-H2": "VIYADGMRTAYADSVK", "CDR-H3": "GNVAGTFDI", "log10 Kd, replicates": "-0.15 -0.29 -0.50 -0.46 -0.49 -0.17", "log10 Kd (nM), mean": "-0.34", "control signals": "1 of 18 (1.75)"}
{"CDR-H1": "GFDLNEYGIS", "CDR-H2": "VIYADGKRSAYADSVK", "CDR-H3": "GNVAGTFDL", "log10 Kd, replicates": "-0.22 -0.26 -0.54 -0.74 -0.31 -0.39", "log10 Kd (nM), mean": "-0.41", "control signals": "0 of 18"}
{"CDR-H1": "GFDLNEYGIS", "CDR-H2": "VIYADGRRTAYVDSVK", "CDR-H3": "GNVAGTFDQ", "log10 Kd, replicates": "-0.67 -0.57 -0.33 -0.91 -0.66 -0.27", "log10 Kd (nM), mean": "-0.57", "control signals": "0 of 18"}
{"CDR-H1": "GFDLNEYGIS", "CDR-H2": "VIYADGMRTFYADSVK", "CDR-H3": "GEVAGTFDQ", "log10 Kd, replicates": "-0.85 -0.99 -1.14 -0.62 -1.04 -0.86", "log10 Kd (nM), mean": "-0.92", "control signals": "0 of 18"}
{"CDR-H1": "GFDLNEYGIS", "CDR-H2": "VIYADGMRTQYADSVK", "CDR-H3": "GNVAGTFDL", "log10 Kd, replicates": "-0.31 -0.06 -0.39 0.35 -0.27 0.01", "log10 Kd (nM), mean": "-0.11", "control signals": "0 of 18"}
{"CDR-H1": "GFDLNEYGIS", "CDR-H2": "VIYADGMRTQYADSVK", "CDR-H3": "GENAGTFDI", "log10 Kd, replicates": "n.d. n.d. -0.22 0.92 0.58 1.60", "log10 Kd (nM), mean": "0.72", "control signals": "0 of 18"}
{"CDR-H1": "GFDLNEYGIS", "CDR-H2": "VIYADGQRTAYADDVK", "CDR-H3": "GNTAGTFDV", "log10 Kd, replicates": "-0.25 -0.24 -0.54 -0.56 -0.28 -0.63", "log10 Kd (nM), mean": "-0.42", "control signals": "1 of 18 (3.04)"}

The 5 strongest on average among those seen in every replicate, once more:

{"CDR-H1": "GFDLNEYGIS", "CDR-H2": "VIYADGMRTFYADSVK", "CDR-H3": "GEVAGTFDQ", "log10 Kd, replicates": "-0.85 -0.99 -1.14 -0.62 -1.04 -0.86", "log10 Kd (nM), mean": "-0.92", "control signals": "0 of 18"}
{"CDR-H1": "GFDLNEYGIS", "CDR-H2": "VIYADGMRTAYADDVK", "CDR-H3": "GQVAGTFDM", "log10 Kd, replicates": "-0.29 -0.73 -0.76 -0.96 -1.28 -0.43", "log10 Kd (nM), mean": "-0.74", "control signals": "0 of 18"}
{"CDR-H1": "GFDLNEYGIS", "CDR-H2": "VIYADGTRTAYADSVK", "CDR-H3": "GENAGTFDI", "log10 Kd, replicates": "-0.56 -0.74 -0.50 -0.30 -0.80 -0.55", "log10 Kd (nM), mean": "-0.57", "control signals": "0 of 18"}
{"CDR-H1": "GFDLNEYGIS", "CDR-H2": "VIYADGRRTAYVDSVK", "CDR-H3": "GNVAGTFDQ", "log10 Kd, replicates": "-0.67 -0.57 -0.33 -0.91 -0.66 -0.27", "log10 Kd (nM), mean": "-0.57", "control signals": "0 of 18"}
{"CDR-H1": "GFNLDEYGIS", "CDR-H2": "VIYADGVRTAYSDSVK", "CDR-H3": "GNVAGTFDV", "log10 Kd, replicates": "-0.53 -0.64 -0.40 -0.57 -0.72 -0.41", "log10 Kd (nM), mean": "-0.55", "control signals": "0 of 18"}

Data: MIT Lincoln Laboratory AlphaSeq set, Li et al. 2023, doi:10.1038/s41467-023-39022-2, as distributed in FLAb.